Tests used:
[1] = target: RCLH1Xr complex (Rba. sphaeroides reaction centre/LH1/PufX core complex, red carotenoids) (Rhodobacter sphaeroides) (UniProt P0C0Y7); experiment: sucrose density gradient ultracentrifugation; DDM-solubilised (4%) intracytoplasmic membranes on five-step gradients of 20-25% (w/v) sucrose in 20 mM HEPES (pH 8)/0.04% DDM, 20 h, 180 000g, 4 °C; monomer and dimer bands; cells grown dark/semi-aerobic, light/anaerobic, or (PufX-deficient strains) light/anaerobic with 20 mM DMSO
[2] = target: RCLH1Xg complex (Rba. sphaeroides reaction centre/LH1/PufX core complex, green carotenoids) (Rhodobacter sphaeroides) (UniProt P0C0Y7); experiment: sucrose density gradient ultracentrifugation; complexes purified by the His10-tag on PufM from cells grown dark/semiaerobic; data not shown

Substance | stoichiometry N [1] | stoichiometry N [2]
RCLH1Xr complex (Rba. sphaeroides reaction centre/LH1/PufX core complex, red carotenoids) (from UniProt P0C0Y7 1-260; P0C0Y8 1-282; P0C0Y9 1-308; P13402 1-82; P0C0X9 1-58; P0C0Y1 1-49) | 2 | –
RCLH1Xg complex (Rba. sphaeroides reaction centre/LH1/PufX core complex, green carotenoids) (from UniProt P0C0Y7 1-260; P0C0Y8 1-282; P0C0Y9 1-308; P13402 1-82; P0C0X9 1-58; P0C0Y1 1-49) | – | 2

From article PMC5903125
